The text below walks through data of PubChem BioAssay AID2107 (National Center for Advancing Translational Sciences (NCATS), 2009).

Protein sequences, listed by entry. Tags and fused reporters are not part of them. Residues count along the entry.
UniProt P06280, 32-429 limits assumed: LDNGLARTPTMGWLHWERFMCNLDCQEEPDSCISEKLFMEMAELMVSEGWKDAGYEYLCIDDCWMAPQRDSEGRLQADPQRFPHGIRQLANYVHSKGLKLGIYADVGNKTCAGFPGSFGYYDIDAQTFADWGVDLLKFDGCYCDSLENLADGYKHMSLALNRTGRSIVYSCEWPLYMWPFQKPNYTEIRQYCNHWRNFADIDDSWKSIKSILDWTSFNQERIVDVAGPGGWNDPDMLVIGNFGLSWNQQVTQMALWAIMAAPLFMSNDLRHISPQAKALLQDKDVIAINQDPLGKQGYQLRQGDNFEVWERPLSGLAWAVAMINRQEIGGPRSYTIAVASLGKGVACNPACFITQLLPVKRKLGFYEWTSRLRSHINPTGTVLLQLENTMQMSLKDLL

“And” between values parts separate entries of the source, which are not always exact repeats. Equal entries are not always repeated. The entries are a selection whose mix differs from that of the whole data set. The source made the active and inactive calls. Calls come from the whole dose curve; as a rule, active = well fitted inhibition curve with a large enough effect; inconclusive = small, poorly fitted or top-dose-only effect, or effect the other way; inactive = flat fitted curve, though single readings scatter.

This experiment concerns the target Alpha-galactosidase A (Homo sapiens) (UniProt P06280). In words: qHTS Assay for Inhibitors and Activators of Human alpha-Galactosidase From Spleen Homogenate.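 Note: 0% = enzyme with vehicle and -100% = no enzyme basal signal.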 As to conditions: 4MU-alpha-Gal fluorescence, 40 min; at 80 µM (top of the series). An excerpt: NIH Chemical Genomics Center [NCGC] NIH Molecular Libraries Probe Production Centers Network [MLPCN] MLPCN Grant: R03 MH084842-01 Assay Submitter (PI): Wei Zheng NCGC Assay Overview: Alpha-galactosidase is a homodimeric glycoprotein that hydrolyzes the terminal alpha-galactosyl moieties from glycolipids and glycoproteins. Deficiency of this enzyme results in Fabry Disease with progressive accumulation of globotriaosylceramide and other glycosphingolipids in vascular endothelial cells that causes renal failure, myocardial infarction and stroke, and premature death in patients. […]
NCGC Assay Protocol Summary: This is a fluorogenic enzyme assay with 4-methylumbelliferyl-alpha-D-galactopyranoside as the substrate and human spleen homogenate containing alpha-galactosidase as the enzyme preparation. Upon hydrolysis of this fluorogenic substrate, the resulting product, 4-methylumbelliferone (which excites at 365 nm and emits at 440 nm) can be detected by a fluorescence plate reader. […] The AC50 values were determined from concentration-response data modeled with the standard Hill equation. […] (3) Add 2 ul of substrate (1 mM final) (4) Incubate at 37C for 40 min (5) Add 2 ul stop solution (1M NaOH and 1M Glycine mixture, pH 10) (6) Detect the assay plate in a ViewLux plate reader (PerkinElmer) with Ex=365 nm and Em=440nm. […]
On the technique in general: qHTS replaces the single test concentration by a dilution series.
With `CN(CCCl)CCCl`, the activity change, negative = inhibition was inactive: 3.19% and inactive: 10.5%.

On to `O=[N+]([O-])C(Cl)(Cl)Cl`, for which the activity change, negative = inhibition is inactive: 9.86%.
